Data on one molecule can be found in PubChem BioAssay AID624464 (National Center for Advancing Translational Sciences (NCATS), 2012).

Amino acid sequences for entries named in this document (tags omitted).
UniProt P14416, whole entry: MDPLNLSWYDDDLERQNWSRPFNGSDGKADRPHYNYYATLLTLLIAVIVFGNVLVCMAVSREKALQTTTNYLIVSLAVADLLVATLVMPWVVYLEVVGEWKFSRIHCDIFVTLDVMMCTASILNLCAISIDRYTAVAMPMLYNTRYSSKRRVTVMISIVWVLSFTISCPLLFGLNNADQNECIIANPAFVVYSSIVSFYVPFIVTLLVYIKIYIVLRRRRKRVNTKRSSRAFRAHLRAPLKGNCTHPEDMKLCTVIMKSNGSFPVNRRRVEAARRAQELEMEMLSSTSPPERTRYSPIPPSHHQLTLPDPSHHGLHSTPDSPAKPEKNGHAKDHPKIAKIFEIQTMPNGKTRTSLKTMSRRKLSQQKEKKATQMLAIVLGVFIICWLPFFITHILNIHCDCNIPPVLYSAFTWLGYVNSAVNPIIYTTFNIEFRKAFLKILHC

The list shows a part of the results, in another mix than the full data. Calls of active or inactive are those of the source. Rule as the data show it: active = potentiation above about 50%; inconclusive = mostly about 30% to 49%; inactive = weaker than that.

The target of the assay is D(2) dopamine receptor (Homo sapiens) (UniProt P14416). Nature of the assay: Beta-Arrestin HTS for Positive Allosteric Modulators of the Human D2 Dopamine Receptor: Potentiators. The note with it: DiscoveRx D2 beta-arrestin cells, luminescence, 90 min; stronger effect = higher value; 100% = 57 uM dopamine signal. An excerpt: There is great interest in identifying small molecule ligands for G-protein coupled receptors (GPCRs) as nearly 50% of all FDA-approved drugs target these important receptor proteins. […] Amongst the dopamine receptors (DARs), the D2 is arguably one of the most validated drug targets in neurology and psychiatry. For instance, all receptor-based antiparkinsonian drugs primarily work via stimulating the D2 DAR, whereas all FDA-approved antipsychotic agents are antagonists of this receptor. The D2 DAR is also therapeutically targeted in other disorders such as restless legs syndrome, tardive dyskinesia, Tourette's syndrome, and hyperprolactinemia.
To this end, a miniaturized qHTS screen was developed to be screened against the Molecular Libraries Small Molecule Repository (MLSMR). This assay seeks to identify potentiators against the D2 DAR.
NIH Molecular Libraries Probe Production Network [MLPCN] […]
DiscoveRx D2 cells were thawed from frozen stock and seeded at 2,100 cells/ 3 uL/well media (DiscoveRx Plating Reagent 2) with MultiDrop Combi dispenser (Thermo Scientific, Logan, UT) onto white tissue culture treated 1536-well Aurora plates (Brooks Automation, Chelmsford, MA) and allowed to attach overnight at 37 deg C, 5% CO2. […] The plates were incubated at ambient temperature for 1 hour and then the luminescent signal was read on ViewLux plate reader (PerkinElmer, Waltham, MA).
Turning to `CCc1ccc(OP(C)(=O)Nc2cccnc2)cc1` (stereo unspecified), the potentiation is inactive: -16.6%.
